## scFv variants of Ab-14 (light chain) against a SARS-CoV-2 spike peptide

All variants were tested on one target, the spike HR2 peptide PDVDLGDISGINAS (SARS-CoV-2).

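The starting antibody came from a phage panning campaign against this peptide. Designed CDR sequences, proposed from the first random library and measured here. Several design methods are mixed in this list. The scFvs were displayed on barcoded MATa yeast, the peptide on MATalpha yeast. Mating (16 h, 30 °C) was followed by selection of diploids and sequencing of their barcodes. Scores were corrected for input abundance and mapped to Kd with protein pairs of known affinity run in the same pool. Each pool was mated in six replicate cultures.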

Parent: Ab-14, a human scFv built as VH, the linker GGGGSGGGGSGGGGS, VL. Only the CDRs of the light chain vary.
VH: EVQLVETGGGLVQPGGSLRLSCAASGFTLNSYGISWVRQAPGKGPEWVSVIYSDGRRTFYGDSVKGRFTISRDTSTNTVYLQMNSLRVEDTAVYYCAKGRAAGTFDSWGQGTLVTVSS
VL: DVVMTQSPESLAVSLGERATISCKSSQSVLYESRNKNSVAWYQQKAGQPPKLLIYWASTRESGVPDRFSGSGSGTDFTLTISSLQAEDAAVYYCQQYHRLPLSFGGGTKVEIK

Each variant is given by its three light chain CDRs, as the data file delimits them; those of the parent are KSSQSVLYESRNKNSVA, WASTRES, QQYHRLPLS.
Values are apparent Kd, the geometric mean of the replicates that gave a signal; lower means stronger binding.
"not detected" means that the variant was in the library but no mating with the target was seen in any replicate; the authors take this as a sign of poor binding, and no number exists.
Order: sorted from the lowest average up, undetected variants last.
A sequence measured in both rounds can read differently, since the two assays cover different ranges.
As a blank, each scFv also met three strains without target: over all light chain designs, 4% of these pairings were detected, typically at 430 nM and seldom below 38 nM.
Of ten entries with the parent sequence, four were seen in most replicates (averages 2.2 nM to 240 nM), three in one and three in none, so single entries are noisy.
In the paper, a design with two or fewer of six values counts as a poor binder.

CDR-L1,CDR-L2,CDR-L3,apparent Kd,seen in
DLPMKELQMSENTNNVA,DSEQKMK,QQYSRLPLM,260 pM,6/6
TLYGLTNSMSKNKDNVA,EMTTREA,QQYDRLPLV,430 pM,6/6
KLSQSVLYESRNKNSVA,DASQRLS,QQYHRLPLS,550 pM,6/6
KLMQSDLYESRNKNSVA,GASTRES,QQYHRLPLS,580 pM,6/6
KLSQSFLYESRNSNNVA,MASTRMV,QQYHRLPLS,630 pM,6/6
KLSQSVEYESRNKNSVA,NASTRMS,QQYHRLPLS,710 pM,6/6
KVDQSVDGQSRNKNAVA,AASTRED,QQYHRLPLS,740 pM,6/6
LLSQSVLLESRNWNAVA,HASTRMD,QQYHRLPLS,800 pM,6/6
KISQSVLYESRNKNSVA,NASTREV,QQYHRLPLS,910 pM,6/6
KSSWSVDYEDRNSNSVA,NASQRLW,QQYHRLPLS,910 pM,6/6
KLHQSVLYESRHANNVA,NASQRES,QQYHRLPLS,950 pM,6/6
KVSQSVLYESRNKNSVA,EASTRLS,QQYHRLPLS,1.2 nM,6/6
KLRQSTLYESRNKNSVA,QASTRES,QQYHRLPLK,1.2 nM,6/6
KLSQGQLYESRNKNSVA,NASTRES,QQYHRLPLS,1.2 nM,6/6
KFSQSVLYESRNKNAVA,NASQRES,QQYHRLPLS,1.3 nM,6/6
KSSQSVLYESRNKNSVA,DASTRES,QQMPRLPLS,1.5 nM,6/6
HSSPSVAYESRNKNSVA,NASTRCS,QQYHRLPLS,1.6 nM,6/6
KIFQSWLYEQRNVNSVA,NASQRLD,QQYHRLPLS,1.9 nM,6/6
KVSQSVGYGSRNKNSVA,EASTRES,QQYHRLPLY,2.0 nM,6/6
KVSQSILYESVNKNSVA,HASTRES,QQYHRLPLS,2.5 nM,6/6
KLSQSNLYESRNKNSVA,NASTRES,QQYHRLPLM,2.7 nM,6/6
KSSQSVLYESRNKNSVA,SASTRES,QQYMRLPLS,3.1 nM,6/6
TLSQMWGMESHHKNNVA,QESTREK,QQYFRLPIS,3.1 nM,6/6
KTGQGVLYESRNKNSVA,GASHRES,QQYHRLPLS,3.2 nM,6/6
TIAGVMNTSSHSKNNVA,EVSTRLD,QQYFRLPLE,3.8 nM,6/6
KLRQSTLYESRNKNSVA,WASTRES,QQWHRLPLS,3.9 nM,6/6
TIANSMLYLSNLKNSIA,QAETRES,QQYHRLPIS,5.3 nM,6/6
HITMGMYVSGRYKSNIA,QAEMREK,QQYDRLPLM,5.3 nM,6/6
KLSMETYGLTGHASSIA,HQEIRWA,QQYHKLPLI,6.3 nM,6/6
KSLQSWGYESRNKNSVA,HASTREQ,QQYHRLPLS,7.4 nM,6/6
MMSQVTALGQRHRNNVA,QTSTRED,QQYDRLPLI,7.9 nM,6/6
KSSQSVLYESRNKNSVA,HASIREY,QQYHRLPLS,8.1 nM,6/6
KLSMSVQYESRNKNSVA,WASTRES,QQYARLPLS,15 nM,6/6
KVSEFMRGLMQRKDSIA,DNVTRSN,QQYDRLPLS,23 nM,3/6
KISFQYRYEQLMKNSIA,EVQTRLK,QQYHRLPLS,25 nM,5/6
KLPQSTLYESRNKNSVA,WASTRES,QQYHRLPLS,30 nM,6/6
KFSGSVLYESHNKNSVA,WASTRES,QQYHRLPLS,40 nM,6/6
HSSPSVLYESRNKNSVA,NASTRES,QQYHRLGLQ,68 nM,6/6
KSSQSVLYESFNKNSVA,WASTRES,QQYHRLPLS,71 nM,6/6
KVQPSELYESRHDNSVA,NASKRES,QQYHRLPLS,73 nM,6/6
KMMLSLGEFKQSEDNVA,DMRVSVA,QQYDHLPLT,100 nM,1/6
KSSQSVLYESRNKNSVA,WVSTRES,QQYHRLPLS,110 nM,3/6
KSSQSVLYESRNKNSVA,WASTRES,SQYSRLPLS,130 nM,1/6
KSSQTVLMESRNKNEVA,WASTRES,QQYHRLPLS,170 nM,1/6
KFSQSTLYESRNKNSVA,WASTRES,QQYHRLPLP,210 nM,3/6
KIGLVTNGISFSKNSVA,EQSTRSN,QQYDRLPLS,280 nM,3/6
KSSQSVLYESRNKNSVA,SASTRES,QQYQRLPSS,2.6 µM,2/6
SLAESAHLESRNKNSVA,DNSTRES,QHYDRLPLS,not detected,0/6
KISYQYRYEQLSKNNIA,EVVTRLK,QQYHRLPLS,not detected,0/6
KSSFSVLYESRNKNSVA,WASTRES,QQYHRLPLN,not detected,0/6
KSSQSSAYESRNKNSHA,HASTRES,QQYHRLPCS,not detected,0/6

Extract of 3 entries:

CDR-L1,CDR-L2,CDR-L3,apparent Kd,seen in
KISYQYRYEQLSKNNIA,EVVTRLK,QQYHRLPLS,not detected,0/6
TLSQMWGMESHHKNNVA,QESTREK,QQYFRLPIS,3.1 nM,6/6
KFSGSVLYESHNKNSVA,WASTRES,QQYHRLPLS,40 nM,6/6

The measurements come from Li et al. 2023 (doi:10.1038/s41467-023-39022-2) through the FLAb antibody collection.